Assay results as given in patent US5972907A, “Synthetic core 2-like branched structures containing GalNAc-lewis^x and Neu5Acα2-3Galβ1-3GalNAc sequences as novel ligands for selectins” (Health Research, Inc., priority 1997, dated 1999).

Assays:
P-Selectin = target: T1, P-Selectin (Homo sapiens, UniProt P16109); assay: ELISA inhibition of recombinant P-selectin binding to immobilized SLe^x; conditions: mean of 3 determinations, read-out: IC50 Values Against SLe^x, P-Selectin
T1 sequence (P16109 42-830): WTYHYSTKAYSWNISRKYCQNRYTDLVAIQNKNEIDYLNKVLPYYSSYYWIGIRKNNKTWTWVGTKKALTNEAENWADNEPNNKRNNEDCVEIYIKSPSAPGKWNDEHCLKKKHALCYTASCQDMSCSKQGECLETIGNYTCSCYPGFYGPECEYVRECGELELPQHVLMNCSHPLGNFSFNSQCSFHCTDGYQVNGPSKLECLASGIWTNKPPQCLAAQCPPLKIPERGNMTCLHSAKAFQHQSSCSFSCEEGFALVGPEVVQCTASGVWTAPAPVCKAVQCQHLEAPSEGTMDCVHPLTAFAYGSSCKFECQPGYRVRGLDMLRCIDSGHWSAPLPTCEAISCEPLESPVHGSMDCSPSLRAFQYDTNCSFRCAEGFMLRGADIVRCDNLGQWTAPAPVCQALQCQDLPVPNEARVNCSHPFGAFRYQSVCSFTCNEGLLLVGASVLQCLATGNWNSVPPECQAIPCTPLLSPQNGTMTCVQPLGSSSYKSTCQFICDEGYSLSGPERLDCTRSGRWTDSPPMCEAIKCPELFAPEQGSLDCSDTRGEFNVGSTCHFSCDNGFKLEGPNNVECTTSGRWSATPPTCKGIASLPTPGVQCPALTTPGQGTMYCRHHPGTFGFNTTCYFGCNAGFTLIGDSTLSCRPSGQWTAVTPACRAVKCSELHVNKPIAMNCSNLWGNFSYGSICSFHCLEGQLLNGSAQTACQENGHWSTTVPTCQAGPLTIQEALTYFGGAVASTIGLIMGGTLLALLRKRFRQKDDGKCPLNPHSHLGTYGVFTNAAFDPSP
Procedure: (§1) Relative Inhibitory Properties of Branched Chains Including Neu5Ac and/or GalNAcLe^x Against Recombinant Selectins Binding to Immobilized SLe^x
(§2) ELISA inhibition studies were done as previously reported conditions. Ic50 values against immobilized SLe^x are the mean values of 3 determinations and were calculated according to published methodology.

E-Selectin = target: T2, E-Selectin (Homo sapiens, UniProt P16581); assay: ELISA inhibition of recombinant E-selectin binding to immobilized SLe^x; conditions: mean of 3 determinations, read-out: IC50 Values Against SLe^x, E-Selectin
T2 sequence (P16581 22-610): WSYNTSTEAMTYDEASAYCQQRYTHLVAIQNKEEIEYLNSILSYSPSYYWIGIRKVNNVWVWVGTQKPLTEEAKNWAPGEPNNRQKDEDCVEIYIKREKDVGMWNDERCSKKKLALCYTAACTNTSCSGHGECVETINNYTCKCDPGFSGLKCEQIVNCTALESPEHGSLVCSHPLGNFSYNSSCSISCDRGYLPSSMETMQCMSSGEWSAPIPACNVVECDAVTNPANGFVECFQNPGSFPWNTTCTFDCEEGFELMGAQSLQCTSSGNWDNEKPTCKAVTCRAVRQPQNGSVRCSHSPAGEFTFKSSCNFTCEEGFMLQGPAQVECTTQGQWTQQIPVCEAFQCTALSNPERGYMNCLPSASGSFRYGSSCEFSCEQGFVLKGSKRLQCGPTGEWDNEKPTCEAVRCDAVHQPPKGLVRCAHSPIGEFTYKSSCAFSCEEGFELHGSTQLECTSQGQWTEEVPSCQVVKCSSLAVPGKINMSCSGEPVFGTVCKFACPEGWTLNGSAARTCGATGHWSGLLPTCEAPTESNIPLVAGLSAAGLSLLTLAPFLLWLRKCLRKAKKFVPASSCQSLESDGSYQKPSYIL
Procedure: as §1, §2

sialyl Lewis^x [reference compound]
IC50 (P-Selectin): 520 µM | IC50 (E-Selectin): 540 µM
